## Yeast mating assay B: variants of the scFv Ab-14

Values reported by Li et al. 2023, doi:10.1038/s41467-023-39022-2 (FLAb copy).

Target peptide (SARS-CoV-2 spike, HR2 region): PDVDLGDISGINAS

Parent: Ab-14, a human scFv built as VH, three GGGGS repeats, VL. Only the CDRs of the light chain vary.
VH: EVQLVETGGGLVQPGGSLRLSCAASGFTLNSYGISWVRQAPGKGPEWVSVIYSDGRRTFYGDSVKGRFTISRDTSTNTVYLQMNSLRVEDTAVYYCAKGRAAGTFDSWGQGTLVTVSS
VL: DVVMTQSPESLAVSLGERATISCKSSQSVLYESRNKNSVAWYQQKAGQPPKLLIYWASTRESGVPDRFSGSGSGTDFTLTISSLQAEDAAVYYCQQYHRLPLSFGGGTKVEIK

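The starting antibody came from a phage panning campaign against this peptide. The variants were designed computationally from a first round of random CDR variants and then made and measured. Group labels follow the data file (Ctrl: baseline library sampled from a position-specific scoring matrix, with some repeated check sequences; En: ensemble of fine-tuned language models; GP: Gaussian process model; GPLM: also part of the Gaussian process libraries; HC: hill climbing; Gen: genetic algorithm; Gibbs: Gibbs sampling; a sequence that several methods proposed may carry one label only). AlphaSeq pools MATa yeast showing the antibodies with MATalpha yeast showing the peptide. After mating in shaken culture at 30 °C for 16 h, diploids were selected and their barcode pairs sequenced. The ratio of observed to expected reads was calibrated, replicate by replicate, on BCL2-family standards whose Kd was known from biolayer interferometry. There are six technical replicates.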

Variants are written as CDR1, CDR2 and CDR3 of the light chain (limits as in the source). Parent: KSSQSVLYESRNKNSVA, WASTRES, QQYHRLPLS.
Scale: log10 of Kd in nM, estimated from mating counts; low values are strong binders.
Replicates are averaged; those with no signal do not enter the mean.
An entry "ND" has no value in the source: the pair was not observed among the diploids in that replicate. This suggests poor binding but is not conclusive.
The range of this assay differs from that of the first round, and the authors advise against merging the two.

| # | CDR-L1 | CDR-L2 | CDR-L3 | group | log10 Kd (nM) by replicate | mean, log10 nM |
|---|---|---|---|---|---|---|
| 1 | QIFFNDFQYRIESQNIA | QASMREV | QQYARLPLV | En_Gibbs | ND ND ND ND ND ND | ND |
| 2 | KLGQSVAMTSRIKNNVA | DLNERER | QQYDRLPLS | En_HC | 0.56 0.47 0.52 0.08 0.02 0.36 | 0.34 |
| 3 | KSSQSVLYEWRNKNSVA | WASTRES | QQYHRLPLS | Ctrl | ND 2.44 ND 2.22 ND 2.55 | 2.40 |
| 4 | KVSQSTLYESRMKNSVA | NASVRSS | QQYHRLPLS | GP_Gibbs | 0.32 0.11 0.15 0.06 0.31 0.38 | 0.22 |
| 5 | TLHGNIQYGGIMIKSIA | DNVQRAN | QQYTRLPLS | En_Gibbs | 0.38 0.34 0.24 0.13 0.48 0.34 | 0.32 |
| 6 | MIAQGLRGVGRNKNSVA | NAQTRAS | QHYHRLPLS | En_HC | 1.00 1.22 1.05 0.57 0.89 1.67 | 1.07 |
| 7 | KSSQSVLYESRMKNSVA | WASTRES | QQYHRLDLS | Ctrl | ND ND ND ND ND ND | ND |
| 8 | KLSQSFLYESRWKNSVA | EASQRES | QQYHRLPLS | GP_HC | 0.26 0.12 0.46 0.21 -0.04 0.38 | 0.23 |
| 9 | KSSQSVLYESRNKGSVA | GASTRES | QQYHRLPLS | Ctrl | -0.16 -0.33 -0.29 -0.23 -0.32 -0.07 | -0.23 |
| 10 | KLMGSMLYEQRMKNSVA | QASQRMS | QDYHRLPLS | GP_Gibbs | 0.43 0.43 0.36 0.15 0.59 0.62 | 0.43 |
| 11 | MISQLFMYGSRHYNSIA | QASTREK | QQYDRLPLI | En_HC | 1.75 1.92 1.08 0.92 1.35 2.16 | 1.53 |
| 12 | KISISYLYESRNTNSVA | EASTRES | QQYHRLPLS | GP_HC | 0.34 -0.09 0.16 0.30 0.16 0.14 | 0.17 |
| 13 | KISQSVLYESRNKNSVA | WGSTRES | QQYHRLPLS | Ctrl | 0.26 0.10 -0.10 0.08 0.17 0.17 | 0.11 |
| 14 | TISQSAFMESHNKNSVA | DLNVRGS | QQYDRLPLS | En_HC | 0.31 0.42 0.13 -0.01 0.30 0.40 | 0.26 |
| 15 | KSSQSVLYESRNKNSVA | WASTRQS | QQYHRLPLS | Ctrl | ND ND 1.69 1.52 ND ND | 1.60 |
| 16 | KVSQMWLYESRNCNSVA | NASQREE | QQYHRLPLS | GP_Gibbs | 0.24 0.41 0.32 -0.06 0.30 0.69 | 0.32 |
| 17 | KIAMYIEMNAHQNHAMA | EASLKPS | QQYNRLPFS | En_Gibbs | 0.17 0.56 0.19 0.13 -0.62 -0.11 | 0.05 |
| 18 | KSSQSELYESRNKNSVA | GASTRES | QQYHRLPLS | GPLM_HC | 0.40 0.17 0.80 0.67 -0.03 0.28 | 0.38 |
| 19 | HLSQSVLYESRNKNSVA | NASTRMQ | QQYHRLPLS | GP_Gen | -0.15 -0.37 -0.12 -0.20 -0.12 0.14 | -0.14 |
| 20 | NLSWKLIGFENEWMAVA | NTSERNA | QQYARLPLS | En_Gibbs | 0.70 0.47 1.35 0.92 0.85 1.02 | 0.89 |
| 21 | KSRQSTLYESSNTNSVA | WASTREE | QQYHRLPLS | Ctrl | 1.53 1.50 0.89 1.22 1.57 1.39 | 1.35 |
| 22 | KLQQQQLYESRNKNSVA | SASTREE | QQYHRLPLS | GP_HC | -0.17 -0.15 -0.29 -0.32 -0.28 -0.23 | -0.24 |
| 23 | HITMGMYVSGRYKSNIA | QAETREK | QQYDRLPLM | En_Gen | 0.82 0.33 0.76 2.12 0.62 0.83 | 0.91 |
| 24 | KIGSMTNGEKFQSNSVA | QTSTREE | QQYHRLPLS | En_HC | 0.42 0.37 -0.16 0.13 0.00 0.01 | 0.13 |
| 25 | FLGYQQDGNGLQRQAVA | QVNMKEY | QQYGRLPLM | En_Gibbs | 1.84 2.75 ND ND 1.64 ND | 2.07 |
| 26 | TIGQVMHYESRNRNSVA | QTSTREE | QDYDRLPLS | En_HC | 0.64 1.50 1.51 1.60 1.67 ND | 1.38 |
| 27 | KSSQSVLYPSRNKNSVA | KASTRES | QQYGKLPLS | Ctrl | ND 2.70 1.39 ND 1.96 ND | 2.02 |
| 28 | TLSQMSGVESVKHNSVA | ENSTREK | QQYDRLPLA | En_Gen | ND 2.75 2.38 ND 4.15 2.02 | 2.82 |
| 29 | KSSDSVLYESRNKNSVA | WASERES | QQYHYLHLS | Ctrl | ND ND ND ND ND ND | ND |
| 30 | HFSQSVLYESRNKNSVA | WASTREA | QQYHRLPLS | Ctrl | 0.54 0.23 0.18 0.25 0.32 0.24 | 0.29 |
| 31 | KIYAATMLESHDKNSIA | DLSNRGN | QQYHRLPLS | En_HC | ND ND ND ND ND ND | ND |
| 32 | KVSDPMVEWYANQSAVA | DHADVQH | QQYARLPLS | En_Gibbs | 2.55 2.79 2.47 2.57 2.87 2.13 | 2.57 |
| 33 | MISQLGNMGQFAINSVA | QASLRND | QQYDRLPLI | En_Gen | 1.21 1.46 1.06 1.04 1.12 1.50 | 1.23 |
| 34 | KSSQSVLYESRNKNSVA | DASTRES | QQYHRWILS | Ctrl | ND ND ND ND ND ND | ND |
| 35 | KIGHGLTTEMRNRNSVA | QTETRVE | QHYHRLPLS | En_HC | 1.88 1.51 1.35 1.31 1.41 2.67 | 1.69 |
| 36 | KLMISVEYESRNQNSVA | SASYRLD | QQYHRLPLS | GP_Gibbs | 0.81 0.58 0.38 0.23 0.55 0.68 | 0.54 |
| 37 | KSSQSWLYESRNKNSVA | GASTREQ | QQYHRLPLS | GP_HC | 1.11 1.18 1.53 ND ND ND | 1.27 |
| 38 | KQSQEWLYESRNKNSVA | DASTRES | QQYHRLPLS | GP_HC | -0.37 -0.48 -0.49 -0.65 -0.56 -0.36 | -0.49 |
| 39 | MLLQATMVGERQRNSVA | HASTRED | QQYHRLPLI | En_HC | 0.50 0.47 0.74 0.40 0.33 0.72 | 0.53 |

A selection of 6 entries from above:

| CDR-L1 | CDR-L2 | CDR-L3 | group | log10 Kd (nM) by replicate | mean, log10 nM |
|---|---|---|---|---|---|
| HFSQSVLYESRNKNSVA | WASTREA | QQYHRLPLS | Ctrl | 0.54 0.23 0.18 0.25 0.32 0.24 | 0.29 |
| KIYAATMLESHDKNSIA | DLSNRGN | QQYHRLPLS | En_HC | ND ND ND ND ND ND | ND |
| HITMGMYVSGRYKSNIA | QAETREK | QQYDRLPLM | En_Gen | 0.82 0.33 0.76 2.12 0.62 0.83 | 0.91 |
| MLLQATMVGERQRNSVA | HASTRED | QQYHRLPLI | En_HC | 0.50 0.47 0.74 0.40 0.33 0.72 | 0.53 |
| KSSQSVLYESRNKNSVA | DASTRES | QQYHRWILS | Ctrl | ND ND ND ND ND ND | ND |
| KLGQSVAMTSRIKNNVA | DLNERER | QQYDRLPLS | En_HC | 0.56 0.47 0.52 0.08 0.02 0.36 | 0.34 |

Empty control strains, which show no peptide, gave a signal in 4% of pairings with all light chain designs; the median was 2.64 and 95% of these signals were weaker than 1.59. No background was subtracted.
In the paper, a design with two or fewer of six values counts as a poor binder.